This passage reports EC50 results from patent publication US8431565B2 (priority 2007, dated 2013).

Protein sequences, listed by entry. Tags and fused reporters are not part of them.
UniProt P34972, whole entry: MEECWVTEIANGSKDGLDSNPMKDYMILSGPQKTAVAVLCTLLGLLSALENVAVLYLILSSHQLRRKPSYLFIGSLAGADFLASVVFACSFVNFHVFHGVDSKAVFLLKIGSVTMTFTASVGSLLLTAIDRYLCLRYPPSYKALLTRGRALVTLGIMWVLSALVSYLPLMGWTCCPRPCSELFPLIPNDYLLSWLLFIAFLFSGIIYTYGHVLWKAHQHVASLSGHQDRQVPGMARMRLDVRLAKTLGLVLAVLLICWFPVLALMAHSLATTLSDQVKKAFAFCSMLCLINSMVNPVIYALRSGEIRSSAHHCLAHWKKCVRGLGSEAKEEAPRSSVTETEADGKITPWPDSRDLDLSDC

Structures are written as SMILES. Where only a bound is given, the exact number is not on record here.

One may read the EC50 as the concentration at which the effect is half-maximal. A high value points to a less potent agent.

The target of the assay is human CB2 receptor (hCB2) (Homo sapiens, UniProt P34972). Description: cell-based.
Take `CNC(=O)[C@@H](NC(=O)c1nc(-c2cnn(S(=O)(=O)c3ccccc3)c2)n2c1CN(C)CCC2)C(C)(C)C` [Compound 776, (S)-N-(3,3-dimethyl-1-(methylamino)-1-oxobutan-2-yl)-8-methyl-3-(1-(phenylsulfonyl)-1H-pyrazol-4-yl)-6,7,8,9-tetrahydro-5H-imidazo[1,5-a][1,4]diazepine-1-carboxamide]: the EC50 is more than 10 µM.
`CN1CCN(CC(C)(C)NC(=O)c2nc(-c3cc(Cl)c(F)cc3F)n3c2CN(C)CCC3)CC1` [Compound 879, 3-(5-chloro-2,4-difluorophenyl)-8-methyl-N-(2-methyl-1-(4-methylpiperazin-1-yl)propan-2-yl)-6,7,8,9-tetrahydro-5H-imidazo[1,5-a][1,4]diazepine-1-carboxamide] displayed an EC50 of more than 10 µM.
In the case of `CCNC(=O)[C@@H](NC(=O)c1nc(-c2cc(Cl)c(F)cc2F)n2c1CN(CC)CCC2)C(C)(C)C` [Compound 890, (S)-3-(5-chloro-2,4-difluorophenyl)-8-ethyl-N-(1-(ethylamino)-3,3-dimethyl-1-oxobutan-2-yl)-6,7,8,9-tetrahydro-5H-imidazo[1,5-a][1,4]diazepine-1-carboxamide], the EC50 is more than 10 µM.
Regarding `CN1CCCn2c(-c3cc(F)c(F)cc3F)nc(C(=O)N3CCC4(CCN(C)C4=O)CC3)c2C1` [Compound 788, 2-methyl-8-(8-methyl-3-(2,4,5-trifluorophenyl)-6,7,8,9-tetrahydro-5H-imidazo[1,5-a][1,4]diazepine-1-carbonyl)-2,8-diazaspiro[4.5]decan-1-one], the EC50 is more than 10 µM.
`CNC(=O)[C@@H](NC(=O)c1nc(-c2cc(F)c(F)cc2F)n2c1CN(Cc1cnn(C)c1)CCC2)C(C)(C)C` [Compound 715, (S)-N-(3,3-dimethyl-1-(methylamino)-1-oxobutan-2-yl)-8-((1-methyl-1H-pyrazol-4-yl)methyl)-3-(2,4,5-trifluorophenyl)-6,7,8,9-tetrahydro-5H-imidazo[1,5-a][1,4]diazepine-1-carboxamide]: the EC50 fell in the range of 0.01 to 0.1 µM.
The result for `COC[C@@H](NC(=O)c1nc(-c2cc(F)c(F)cc2F)n2c1C[N+](C)(C)CCC2)C(C)(C)C` [Compound 827, (S)-N-(1-methoxy-3,3-dimethylbutan-2-yl)-8-methyl-3-(2,4,5-trifluorophenyl)-6,7,8,9-tetrahydro-5H-imidazo[1,5-a][1,4]diazepine-1-carboxamide methiodide] reads more than 10 µM; that for `O=C(NCC1CCOCC1)c1nc(-c2ccccc2)n2c1CN(CCO)CC2` [Compound 169, 7-(2-hydrodxyethyl)-3-phenyl-N-((tetrahydro-2H-pyran-4-yl)methyl)-5,6,7,8-tetrahydroimidazo[1,5-a]pyrazine-1-carboxamide], more than 10 µM; that for `CNC(=O)[C@@H](NC(=O)c1nc(-c2cc(F)c(F)cc2F)n2c1CN(Cc1cncnc1)CCC2)C(C)(C)C` [Compound 714, (S)-N-(3,3-dimethyl-1-(methylamino)-1-oxobutan-2-yl)-8-(pyrimidin-5-ylmethyl)-3-(2,4,5-trifluorophenyl)-6,7,8,9-tetrahydro-5H-imidazo[1,5-a][1,4]diazepine-1-carboxamide], 0.01 to 0.1 µM.
In turn, `CNC(=O)[C@@H](NC(=O)c1nc(-c2ccc(C(F)(F)F)cc2C)n2c1CN(C)CCC2)C(C)(C)C` [Compound 632, (S)-N-(3,3-dimethyl-1-(methylamino)-1-oxobutan-2-yl)-8-methyl-3-(2-methyl-4-(trifluoromethyl)phenyl)-6,7,8,9-tetrahydro-5H-imidazo[1,5-a][1,4]diazepine-1-carboxamide] gave an EC50 of more than 10 µM.
On to `CNC(=O)[C@@H](NC(=O)c1nc(-c2cccnc2OC(C)C)n2c1CN(C)CCC2)C(C)(C)C` [Compound 641, (S)-N-(3,3-dimethyl-1-(methylamino)-1-oxobutan-2-yl)-3-(2-isopropoxypyridin-3-yl)-8-methyl-6,7,8,9-tetrahydro-5H-imidazo[1,5-a][1,4]diazepine-1-carboxamide], for which the concentration giving a half-maximal response (EC50) is more than 10 µM.
Turning to `CNC(=O)[C@@H](NC(=O)c1nc(-c2cc(F)c(F)cc2F)n2c1CN(c1ncccn1)CCC2)C(C)(C)C` [Compound 716, (S)-N-(3,3-dimethyl-1-(methylamino)-1-oxobutan-2-yl)-8-(pyrimidin-2-yl)-3-(2,4,5-trifluorophenyl)-6,7,8,9-tetrahydro-5H-imidazo[1,5-a][1,4]diazepine-1-carboxamide], the concentration for a half-maximal effect (EC50) was in the range of 0.01 to 0.1 µM.
The result for `CN1CCCn2c(-c3cc(Cl)ccc3F)nc(C(=O)N[C@H](C(=O)N[C@H]3CN4CCC3CC4)C(C)(C)C)c2C1` [Compound 744, 3-(5-chloro-2-fluorophenyl)-N-((S)-3,3-dimethyl-1-oxo-1-((R)-quinuclidin-3-ylamino)butan-2-yl)-8-methyl-6,7,8,9-tetrahydro-5H-imidazo[1,5-a][1,4]diazepine-1-carboxamide] reads more than 10 µM; that for `CNC(=O)[C@@H](NC(=O)c1nc(C2CCN(C(=O)C(C)C)CC2)n2c1CN(C)CCC2)C(C)(C)C` [Compound 728, (S)-N-(3,3-dimethyl-1-(methylamino)-1-oxobutan-2-yl)-3-(1-isobutyrylpiperidin-4-yl)-8-methyl-6,7,8,9-tetrahydro-5H-imidazo[1,5-a][1,4]diazepine-1-carboxamide], more than 10 µM.
The figure for `CNC(=O)[C@H]1CCN(C(=O)c2nc(-c3cc(Cl)c(F)cc3F)n3c2CN(C)CCC3)C1` [Compound 809, (S)-1-(3-(5-chloro-2,4-difluorophenyl)-8-methyl-6,7,8,9-tetrahydro-5H-imidazo[1,5-a][1,4]diazepine-1-carbonyl)-N-methylpyrrolidine-3-carboxamide] is more than 10 µM.
For `CNC(=O)[C@@H](NC(=O)c1nc(-c2cccnc2C)n2c1CN(C)CCC2)C(C)(C)C` [Compound 640, (S)-N-(3,3-dimethyl-1-(methylamino)-1-oxobutan-2-yl)-8-methyl-3-(2-methylpyridin-3-yl)-6,7,8,9-tetrahydro-5H-imidazo[1,5-a][1,4]diazepine-1-carboxamide], the half-maximal effective concentration (EC50) is more than 10 µM.
In the case of `Cc1noc([C@@H](NC(=O)c2nc(-c3ccccc3)n3c2CN(CC2CC2)CC3)C(C)(C)C)n1` [Compound 88, (S)-7-(cyclopropylmethyl)-N-(2,2-dimethyl-1-(3-methyl-1,2,4-oxadiazol-5-yl)propyl)-3-phenyl-5,6,7,8-tetrahydroimidazo[1,5-a]pyrazine-1-carboxamide], the 50% effective concentration (EC50) was in the range of 0.01 to 0.1 µM.
The figure for `CN1CCCn2c(-c3cc(F)c(F)cc3F)nc(C(=O)N3CCCCC3CN3CCOCC3)c2C1` (centres unmarked) [Compound 789, (8-methyl-3-(2,4,5-trifluorophenyl)-6,7,8,9-tetrahydro-5H-imidazo[1,5-a][1,4]diazepin-1-yl)(2-(morpholinomethyl)piperidin-1-yl)methanone] is more than 10 µM; for `Cc1nnc([C@@H](NC(=O)c2nc(-c3cc(Cl)ccc3F)n3c2CN(CC(C)C)CC3)C(C)(C)C)o1` [Compound 705, (S)-3-(5-chloro-2-fluorophenyl)-N-(2,2-dimethyl-1-(5-methyl-1,3,4-oxadiazol-2-yl)propyl)-7-isobutyl-5,6,7,8-tetrahydroimidazo[1,5-a]pyrazine-1-carboxamide] it is 0.01 to 0.1 µM.
On to `CNC(=O)[C@@H](NC(=O)c1nc(-c2ccc3c(c2)OCCO3)n2c1CN(C)CCC2)C(C)(C)C` [Compound 326, (S)-3-(2,3-dihydrobenzo[b][1,4]dioxin-6-yl)-N-(3,3-dimethyl-1-(methylamino)-1-oxobutan-2-yl)-8-methyl-6,7,8,9-tetrahydro-5H-imidazo[1,5-a][1,4]diazepine-1-carboxamide], for which the EC50 is more than 10 µM.
For `CNC(=O)[C@@H](NC(=O)c1nc(-c2cnn(CC(C)C)c2)n2c1CN(C)CCC2)C(C)(C)C` [Compound 710, (S)-N-(3,3-dimethyl-1-(methylamino)-1-oxobutan-2-yl)-3-(1-isobutyl-1H-pyrazol-4-yl)-8-methyl-6,7,8,9-tetrahydro-5H-imidazo[1,5-a][1,4]diazepine-1-carboxamide], the EC50 was more than 10 µM.
The figure for `CNC(=O)[C@@H](NC(=O)c1nc(-c2cc(F)c(F)cc2F)n2c1CN(c1cccc(Cl)n1)CCC2)C(C)(C)C` [Compound 717, (S)-8-(6-chloropyridin-2-yl)-N-(3,3-dimethyl-1-(methylamino)-1-oxobutan-2-yl)-3-(2,4,5-trifluorophenyl)-6,7,8,9-tetrahydro-5H-imidazo[1,5-a][1,4]diazepine-1-carboxamide] is more than 10 µM.
The result for `CN1CCCn2c(-c3cc(F)c(F)cc3F)nc(C(=O)N3CCOCC3)c2C1` [Compound 859, (8-methyl-3-(2,4,5-trifluorophenyl)-6,7,8,9-tetrahydro-5H-imidazo[1,5-a][1,4]diazepin-1-yl)(morpholino)methanone] reads more than 10 µM; that for `CNC(=O)[C@@H](NC(=O)c1nc(-c2ccc(OC(C)C)cc2)n2c1CN(C)CCC2)C(C)(C)C` [Compound 649, (S)-N-(3,3-dimethyl-1-(methylamino)-1-oxobutan-2-yl)-3-(4-isopropoxyphenyl)-8-methyl-6,7,8,9-tetrahydro-5H-imidazo[1,5-a][1,4]diazepine-1-carboxamide], more than 10 µM; that for `CNC(=O)[C@@H](NC(=O)c1nc(-c2cc(F)c(F)cc2F)n2c1CN(Cc1cncnc1)CC2)C(C)(C)C` [Compound 692, (S)-N-(3,3-dimethyl-1-(methylamino)-1-oxobutan-2-yl)-7-(pyrimidin-5-ylmethyl)-3-(2,4,5-trifluorophenyl)-5,6,7,8-tetrahydroimidazo[1,5-a]pyrazine-1-carboxamide], 0.01 to 0.1 µM.
The result for `CC1CN(C(=O)c2nc(-c3cc(F)c(F)cc3F)n3c2CN(C)CCC3)CC(C)O1` (centres unmarked) [Compound 854, (2,6-dimethylmorpholino)(8-methyl-3-(2,4,5-trifluorophenyl)-6,7,8,9-tetrahydro-5H-imidazo[1,5-a][1,4]diazepin-1-yl)methanone] reads more than 10 µM; that for `CN1CCCn2c(-c3cc(C(F)(F)F)ccc3F)nc(C(=O)N[C@H](C(=O)NCCF)C(C)(C)C)c2C1` [Compound 810, (S)-3-(2-fluoro-5-(trifluoromethyl)phenyl)-N-(1-(2-fluoroethylamino)-3,3-dimethyl-1-oxobutan-2-yl)-8-methyl-6,7,8,9-tetrahydro-5H-imidazo[1,5-a][1,4]diazepine-1-carboxamide], more than 10 µM.
